# In BindingDB's records for doi:10.1016/j.bioorg.2017.02.010 (Charles University, 2017):
# By UniProt entry, the sequences of proteins in these tests, tags left out.
# UniProt Q9N1N9, whole entry: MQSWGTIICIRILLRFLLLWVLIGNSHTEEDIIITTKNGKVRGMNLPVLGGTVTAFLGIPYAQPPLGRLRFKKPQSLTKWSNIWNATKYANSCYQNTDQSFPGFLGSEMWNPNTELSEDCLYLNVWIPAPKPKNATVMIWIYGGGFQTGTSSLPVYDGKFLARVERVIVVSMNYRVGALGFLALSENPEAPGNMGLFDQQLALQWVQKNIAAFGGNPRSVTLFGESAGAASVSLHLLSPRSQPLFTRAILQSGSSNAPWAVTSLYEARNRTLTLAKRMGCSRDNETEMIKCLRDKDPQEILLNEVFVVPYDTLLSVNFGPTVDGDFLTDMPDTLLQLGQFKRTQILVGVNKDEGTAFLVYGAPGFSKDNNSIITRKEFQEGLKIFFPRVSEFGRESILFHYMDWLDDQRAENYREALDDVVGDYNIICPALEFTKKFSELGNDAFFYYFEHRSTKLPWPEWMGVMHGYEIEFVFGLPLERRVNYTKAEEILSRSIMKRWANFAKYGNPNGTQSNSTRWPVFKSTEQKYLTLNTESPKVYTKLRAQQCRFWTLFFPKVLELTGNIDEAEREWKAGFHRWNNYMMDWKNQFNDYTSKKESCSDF
# Target: Carboxylic ester hydrolase (Equus caballus, UniProt Q9N1N9)
# Experiment: Cholinesterase Inhibition Assay
# Experimental: The IC50 values were determined using the spectrophotometric Ellman's method. All of the tested compounds were dissolved in 0.01 M DMSO and then diluted in demineralised water to 0.001 M and 0.0001 M. Acetylcholinesterase was obtained from electric eel (Electrophorus electricus L.) and butyrylcholinesterase was fromequine serum. Rivastigmine and galantamine were involved as reference drugs.
smiles,measurement,value
CCN(C)C(=O)Oc1cccc([C@H](C)N(C)C)c1 [3-[(1S)-1-(dimethylamino)ethyl]phenyl N-ethyl-N-methylcarbamate],IC50,38.4 µM
